Measured values reported in patent publication US6784191B2, “Benzamidine derivatives” (Ajinomoto Co., Inc., priority 1999, dated 2004).

Sequences of proteins named here, by UniProt entry; tags and fusion partners are left off. Residues count along the entry.
UniProt P00742, 235-488 limits assumed: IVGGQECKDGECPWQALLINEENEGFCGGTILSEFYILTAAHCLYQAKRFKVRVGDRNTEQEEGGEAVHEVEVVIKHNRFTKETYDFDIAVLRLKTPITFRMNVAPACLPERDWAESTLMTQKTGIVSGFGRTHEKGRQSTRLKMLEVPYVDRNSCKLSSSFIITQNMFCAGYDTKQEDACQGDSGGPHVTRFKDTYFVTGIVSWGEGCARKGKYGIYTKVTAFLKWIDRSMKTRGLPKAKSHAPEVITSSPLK
UniProt P00742, 41-179 partner limits assumed: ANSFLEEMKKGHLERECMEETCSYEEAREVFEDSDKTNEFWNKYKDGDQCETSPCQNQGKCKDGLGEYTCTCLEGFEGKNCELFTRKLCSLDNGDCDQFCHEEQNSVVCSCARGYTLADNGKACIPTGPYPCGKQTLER

What was measured:
[1] = target: activated human blood coagulation factor X (Homo sapiens, UniProt P00742); test: Determination of activity of inhibiting the activated blood-coagulation factor X (chromogenic substrate, initial rate); details: negative logarithm of concentration inhibiting 50% of initial rate; tris hydrochloride buffer pH 8.4, room temperature; tested form: bis-TFA
Procedure: Determination of Activity of Inhibiting the Activated Blood-coagulation Factor X
130 μl of 100 mM tris hydrochloride buffer adjusted to pH 8.4 was added to 10 μl of an aqueous solution of a compound to be tested. Then 10 μl of a 0.5 unit/ml solution of activated human blood coagulation factor X (a product of Enzyme Research Co.) in tris hydrochloride buffer of pH 8.4 was added to the resultant mixture. After the incubation at room temperature for 10 minutes, 50 μl of a solution of N-benzoyl-L-isoleucine-L-glutamine-glycine-L-arginine-P-nitroanilide hydrochloride (a product of Peptide Institute Inc.) adjusted to 0.8 mM with tris hydrochloride (pH 8.4) was added thereto. The absorbance was determined and then the initial reaction rate was determined. A control was prepared in the same manner as that described above except that the solution of the compound to be tested was replaced with 10 μl of tris hydrochloride buffer adjusted to pH 8.4. The absorbance was determined with MICROPLATE READER Model 3550-UV (a product of BIO RAD) at a wave length of 405 nm at intervals of 15 seconds for 16 minutes. […]

human thrombin = human thrombin (Homo sapiens, UniProt P00734); test: Determination of thrombin-inhibiting activity (S-2238 chromogenic substrate, initial rate); details: negative logarithm of concentration inhibiting 50% of initial rate; tris hydrochloride buffer pH 8.4, room temperature; tested form: bis-TFA
Procedure: Determination of Thrombin-Inhibiting Activity
130 μl of 100 mM tris hydrochloride buffer adjusted to pH 8.4 was added to 10 μl of an aqueous solution of a test compound. Then 10 μl of a solution of human thrombin (a product of SIGMA Co.) adjusted to 2 units/ml with tris hydrochloride buffer of pH 8.4 was added to the resultant mixture. After the incubation at room temperature for 10 minutes, 50 μl of a solution of D-phenylalanine-L-pipecolyl-L-arginine-P-nitroanilide dihydrochloride (S-2238; a product of Daiichi Kagaku Yakuhin Co.) adjusted to 0.4 mM with tris hydrochloride buffer of pH 8.4 was added thereto. The absorbance was determined and then the initial reaction rate was determined. A control was prepared in the same manner as that described above except that the solution of the compound to be tested was replaced with 10 μl of tris hydrochloride buffer adjusted to pH 8.4. The absorbance was determined with MICROPLATE READER Model 3550-UV (a product of […]) at a wave length of 405 nm at intervals of 15 seconds for 16 minutes. The negative logarithm (pIC50) of a concentration of the test compound which inhibits 50% of the activity (initial rate) of the thrombin in the absence of the test compound was determined, and employed as the index of the activity of inhibiting thrombin.

| Compound | Activity of inhibiting activated blood coagulation factor X (pIC50) [1] | Thrombin-inhibiting activity (pIC50) (human thrombin) |
| --- | --- | --- |
| CCOP(=O)(O)CCc1ccc(C(=N)N)cc1OCCNC(=O)C1CCN(c2ccncc2)CC1 | 7.4 | 3.9 |
| CCOP(=O)(CCc1ccc(C(=N)N)cc1OCCNC(=O)C1CCN(c2ccncc2)CC1)OCC | 6.9 | 4.3 |
